US9290488B2, “Azetidine-substituted quinoxalines as opioid receptor like-1 modulators” (priority 2011, dated 2016)

What was measured:
[1] = target: human opioid receptor-like (ORL-1) (Homo sapiens (Human), UniProt P41146); assay: ORL-1 receptor [35S]GTPγS functional binding assay; format: biochemical; settings: ORL-1 GTPγS
[2] = target: human μ-receptors (Homo sapiens (Human), UniProt P35372); assay: In vitro mu-opioid receptor [35S]GTPγS functional assay

Compound	GTPγS Emax [mean ± SEM] ORL-1 [1]	GTPγS Emax [mean ± SEM] Opioid Receptor Mu [2]
C[C@@H]1C[C@@H]2C[C@H](C1)C[C@@H](N1[C@@H]3CC[C@H]1C[C@@H](n1c(=O)c(N4CC[C@H]4C(=O)O)nc4ccccc41)C3)C2	47.3 ± 4.8%	36.7 ± 5.8%
CC[C@@H]1C[C@@H]2C[C@H](C1)C[C@@H](N1[C@@H]3CCC[C@H]1C[C@@H](n1c(=O)c(N4CC[C@H]4C(=O)O)nc4ccccc41)C3)C2 [B20a(ii)]	51.3 ± 0.3%	30.3 ± 1.7%
CO[C@H]1CN(c2nc3ccccc3n([C@H]3C[C@H]4CCC[C@@H](C3)N4[C@H]3C[C@@H]4CCC[C@@H](C4)C3)c2=O)[C@@H]1C(=O)O	22.3 ± 1.0%	–
O=C(O)CC1CN(c2nc3ccccc3n([C@H]3C[C@H]4CC[C@@H](C3)N4[C@@H]3C[C@@H]4CCCC[C@@H](C4)C3)c2=O)C1	47.3 ± 2.2%	–
CC1(C)[C@H]2CC[C@@H](CCN3[C@@H]4CCC[C@H]3C[C@@H](n3c(=O)c(N5CC[C@H]5C(=O)O)nc5ccccc53)C4)[C@@H]1C2	53.7 ± 3.8%	25.3 ± 1.8%
N[C@@H]1CN(c2nc3ccccc3n([C@H]3C[C@H]4CCC[C@@H](C3)N4[C@@H]3C[C@@H]4CCCC[C@@H](C4)C3)c2=O)[C@@H]1C(=O)O	25.67 ± 1.45%	–
O=C(O)[C@H]1CCN1c1nc2ccccc2n([C@H]2C[C@H]3CCC[C@@H](C2)N3[C@@H]2C[C@@H]3CCCC[C@@H](C3)C2)c1=O	29.0 ± 0.6%	9.0 ± 0.6%
O=C(O)C1CN(c2nc3ccccc3n([C@H]3C[C@H]4CCC[C@@H](C3)N4C3CCCCCCCCC3)c2=O)C1	103.0 ± 2.1%	–
CN(C)[C@@H]1CN(c2nc3ccccc3n([C@H]3C[C@H]4CCC[C@@H](C3)N4[C@@H]3C[C@@H]4CCCC[C@@H](C4)C3)c2=O)[C@@H]1C(=O)O	28.7 ± 1.2%	–
C[C@@H]1C[C@@H]2C[C@H](C1)C[C@@H](N1[C@@H]3CCC[C@H]1C[C@@H](n1c(=O)c(N4CC(CC(=O)O)C4)nc4ccccc41)C3)C2	26.0 ± 2.5%	–
C[C@@H]1C[C@@H]2C[C@H](C1)C[C@@H](N1[C@@H]3CC[C@H]1C[C@@H](n1c(=O)c(N4CC[C@@H]4C(=O)O)nc4ccccc41)C3)C2	38.7 ± 3.5%	19.7 ± 0.9%
CC1(C)[C@H]2CC[C@@H](CCN3[C@@H]4CCC[C@H]3C[C@@H](n3c(=O)c(N5CC[C@@H]5C(=O)O)nc5ccccc53)C4)[C@@H]1C2	51.3 ± 5.8%	–
C[C@@H]1C[C@@H]2C[C@H](C1)C[C@@H](N1[C@@H]3CCC[C@H]1C[C@@H](n1c(=O)c(N4CC[C@@H]4C(=O)O)nc4ccccc41)C3)C2	24.0 ± 0.6%	–
O=C(O)[C@@H]1CCN1c1nc2ccccc2n([C@H]2C[C@H]3CC[C@@H](C2)N3[C@@H]2C[C@@H]3CCCC[C@@H](C3)C2)c1=O	50.3 ± 4.4%	23.3 ± 0.3%
C[C@@H]1C[C@@H]2C[C@H](C1)C[C@@H](N1[C@@H]3CCC[C@H]1C[C@@H](n1c(=O)c(N4CC(C(=O)O)C4)nc4ccccc41)C3)C2	29.3 ± 3.0%	–
O=C(O)[C@H]1CCN1c1nc2ccccc2n([C@H]2C[C@H]3CCC[C@@H](C2)N3[C@H]2C[C@@H]3CCC[C@@H](C3)C2)c1=O	27.3 ± 1.7%	–
O=C(O)[C@@H]1CCN1c1nc2ccccc2n([C@H]2C[C@H]3CCC[C@@H](C2)N3[C@@H]2C[C@@H]3CCCC[C@@H](C3)C2)c1=O	41.0 ± 0.6%	–
O=C(O)[C@@H]1CCN1c1nc2ccccc2n([C@H]2C[C@H]3CCC[C@@H](C2)N3[C@H]2C[C@@H]3CCC[C@@H](C3)C2)c1=O	29.0 ± 0.9%	12.0 ± 2.1%
CC(=O)N[C@@H]1CN(c2nc3ccccc3n([C@H]3C[C@H]4CCC[C@@H](C3)N4[C@@H]3C[C@@H]4CCCC[C@@H](C4)C3)c2=O)[C@@H]1C(=O)O	19.75 ± 0.48%	–
O=C(O)CC1CN(c2nc3ccccc3n([C@H]3C[C@H]4CCC[C@@H](C3)N4[C@@H]3C[C@@H]4CCCC[C@@H](C4)C3)c2=O)C1	23.7 ± 2.0%	–
CO[C@H]1CN(c2nc3ccccc3n([C@H]3C[C@H]4CCC[C@@H](C3)N4[C@@H]3C[C@@H]4CCCC[C@@H](C4)C3)c2=O)[C@@H]1C(=O)O	24 ± 1%	–
CC1(C)[C@H]2CC[C@@H](CCN3[C@@H]4CCC[C@H]3C[C@@H](n3c(=O)c(N5CC(C(=O)O)C5)nc5ccccc53)C4)[C@@H]1C2	58.3 ± 4.5%	67.7 ± 2.9%
C[C@@H]1C[C@@H]2C[C@H](C1)C[C@@H](N1[C@@H]3CCC[C@H]1C[C@@H](n1c(=O)c(N4CC[C@H]4C(=O)O)nc4ccccc41)C3)C2	61 ± 5%	–
